ClpP mod = qHTS Assay for Activators of ClpP; ATP-dependent Clp protease proteolytic subunit (Bacillus subtilis (strain 168)), P80244; purified B. subtilis ClpP, FRET peptide cleavage, 20 min; AID 651965, 2013; Potency, µM (top dose mostly 57.5 µM), inactives show at the top dose activity change, negative = active; 1.9% of 340,000 active; active = well fitted falling curve with a large enough effect; inconclusive = small, poorly fitted or top-dose-only effect; inactive = no such curve, though single readings can be large or run the other way; note: potency is the fitted concentration of half-maximal effect; the source files actives as falling curves though it sought activators and does not explain the sign; nearly all actives have a fitted effect of over 65% in size
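ClpP 10 microg/mL final, pH 8 Tris/KCl buffer with BSA, glycerol, Tween-20; compound pinned in; FRET-FV substrate; RT 20 min; Ex320/Em430; ΔFRET vs ADEP 5.8 microM, DMSO, no enzyme.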
A549 viability = A549 cytotoxicity, counter-screen for Nrf2 inhibitors; Potency, µM (titrated, usually from 46 µM), inactives show at the highest dose activity change, negative = cytotoxicity, hits mostly inhibitors; A549 ARE-Fluc cells, CellTiter-Fluor viability, 18-24 h; 0.16% of 390,000 active; note: potency is the fitted concentration of half-maximal effect; % is set by controls: 0 for no effect and ±100 for the full control effect
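A549 ARE-Fluc cells in 5% FBS OPTI-MEM, 5000 cells/well, rested 2 h then exposed to compounds in concentration-response for 18-24 h at 37 °C. Viability by CellTiter-Fluor fluorescence (Ex 405/Em 525) after 30 min; luciferase luminescence (BugLite, 15 min, RT) read afterwards.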
Nrf2 ARE act = activators of Nrf2 (ARE) signaling; AREc32 ARE-luciferase reporter (MCF7-derived line), luminescence, 24 h; Potency, µM (doses to about 46.1 µM), inactives show top-dose activation, most hits filed as activators; 0.31% of 410,000 active; AID 624171; note: potency is the fitted concentration of half-maximal effect; % of control where 0% means no effect; nearly all actives have a fitted effect of over 65% in size
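Cells of the AREc32 ARE-luciferase line are plated in OPTI-MEM containing 5% FBS and left overnight at 37 deg C. Compounds are pinned in, incubation continues 24 hr, and firefly luciferase signal is then measured.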
miR-21 reporter = raises the signal of a miR-21 reporter; 340,000 tested, under 10 active; HeLa miR-21 FLuc reporter, luciferase, 48 h; Potency, µM (series often up to 38.3 µM), for inactives: at the highest dose reporter change, positive = more light; active = well fitted rising curve with a large enough effect; inconclusive = small, poorly fitted or top-dose-only effect; inactive = no such curve, though single readings can be large or run the other way;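 further: % of control where 0% means no effect; miR-21 action dims this reporter so a rising signal means less miR-21 action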
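HeLa cells stably expressing CMV-driven firefly luciferase with a downstream miR-21 binding sequence, endogenously expressing miR-21, were treated with titrations (up to about 40uM final) for 48 hours at 37 degree Celsius. Luciferase luminescence was read after lysis.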
IL-2 act = IL-2 activation; IL-2 activation reporter assay, cell-based qHTS; stimulated with anti-CD3/CD4/CD28 beads; in transgenic mouse T cells; 0.065% of 360,000 active; AID 652025; activation, % (series mostly up to about 46 µM); in the data active = activation above about 50%; inconclusive = mostly about 30% to 49%; note: 0% is about no effect
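Readout is EGFP and DsRed signal by fluorescent plate cytometry after 18 h at 37 degrees C. Transgenic mouse T cells (750/well) received compound for 60 min before bead stimulation (anti-CD3, anti-CD4, anti-CD28); memory T cells served as non-tolerant control.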
Nrf2 inh = Nrf2 pathway inhibition; A549 ARE-Fluc reporter, luciferase luminescence, 18-24 h; Potency, µM (doses to about 46 µM), without a hit: at the top dose activity change, negative = inhibition, most hits filed as inhibitors; 2.1% of 360,000 active; note: potency is the fitted concentration of half-maximal effect; % is set by controls: 0 for no effect and ±100 for the full control effect; nearly all actives have a fitted effect of over 60% in size
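Quantitative HTS in A549 cells stably bearing an antioxidant response element-firefly luciferase construct. Inhibition of Nrf2-driven transcription was scored by luminescence after 18-24 h of compound exposure at 37 °C.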
ClpP validation = inhibits B. subtilis ClpP protease, hit validation; 40% of 470 active; purified B. subtilis ClpP, FRET-FV substrate cleavage, 20 min; Potency, µM (highest dose often 57.5 µM), without a hit: at the top dose activity change, negative = inhibition, most hits filed as inhibitors; shares compounds with ClpP mod; note: potency is the fitted concentration of half-maximal effect; % is set by controls: 0 for no effect and ±100 for the full control effect; nearly all actives have a fitted effect of over 70% in size
The depositor's hits bear a star; ? = inconclusive; . = no result. This is a sample that favours compounds with a hit; in the whole collection about 3.7% have one here. Unless noted, calls come from the whole dose curve; as a rule, active = well fitted curve in the direction sought with a large enough effect; inconclusive = small, poorly fitted or top-dose-only effect, or another doubt; inactive = no such curve, though single readings can be large; an effect the other way counts as inactive or inconclusive.

Protein sequences, listed by entry. Tags and fused reporters are not part of them.
ATP-dependent Clp protease proteolytic subunit (Bacillus subtilis (strain 168)), P80244, UniProt P80244, whole entry, looked up: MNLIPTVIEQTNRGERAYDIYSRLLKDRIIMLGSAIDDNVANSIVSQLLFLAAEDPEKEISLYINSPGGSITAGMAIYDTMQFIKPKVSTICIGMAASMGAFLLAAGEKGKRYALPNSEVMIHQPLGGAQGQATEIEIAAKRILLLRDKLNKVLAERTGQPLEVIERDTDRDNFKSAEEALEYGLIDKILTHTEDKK

Letter code – A = ClpP mod; B = A549 viability; C = Nrf2 ARE act; D = miR-21 reporter; E = IL-2 act; F = Nrf2 inh; G = ClpP validation
CC(=O)Nc1cccc(NC(=O)Cn2cnc3c2c(=O)n(C)c(=O)n3C)c1
  A = 2%	B = -3%	C = -1%	D = 1%	E = .	F = -15%	G = .
CCOC(=O)C1CCCN(c2ncnc3c2oc2ccccc23)C1 (stereo unspecified)
  A = 352%	B = -5%	C = 7%	D = -60%	E = 0	F = 2%	G = -2%
CCOC(=O)C1CCN(c2ncnc3c2oc2ccccc23)CC1
  A = -2%	B = -1%	C = 0%	D = -17%	E = -1	F = 5%	G = .
CCC(C)NC(=O)c1ccc2c(c1)N(Cc1ccccc1)C(=O)c1ccccc1S2(=O)=O (stereo unspecified)
  A = 0%	B = -7%	C = 4%	D = -4%	E = .	F = -21%	G = .
Clc1ccc(-c2nnc(-c3ccco3)o2)cc1
  A = 11%	B = -10%	C = ?	D = -51%	E = -3	F = ?	G = .
c1cncc(-c2nnc(-c3ccco3)o2)c1
  A = 3.5µM*	B = 3%	C = 4%	D = -18%	E = 1	F = 0%	G = 24µM*
Cc1cc(Cl)ccc1NC(=O)CCn1nc(C)c2c(C)n(-c3ccccc3)nc2c1=O
  A = -6%	B = 10%	C = 0%	D = 3%	E = .	F = -3%	G = .
Cc1c(C(=O)Nc2ccc(-c3nc4cc(Cl)ccc4o3)cc2)oc2ccccc12
  A = 8.9µM*	B = 0%	C = 7%	D = -3%	E = .	F = 0%	G = 15µM*
O=C(CCn1c(=O)c2cccn2c2cccnc21)N1CCN(c2ccccc2)CC1
  A = -5%	B = 7%	C = 5%	D = -1%	E = .	F = 2%	G = .
O=c1oc2ccccc2cc1-c1nnc(-c2cccc(Br)c2)o1
  A = 0.71µM*	B = -7%	C = 7%	D = -8%	E = -1	F = 9%	G = ?
COc1ccc(-n2c(=O)c3c(c4cc(OC)ccc4n3C)n(Cc3cccc(OC)c3)c2=O)cc1
  A = 2.5µM*	B = 0%	C = 0%	D = -6%	E = .	F = ?	G = 22µM*
CCNc1nc(NCC)n2c(SCC(=O)Nc3ccc(OC)c(OC)c3)nnc2n1
  A = 46%	B = 1%	C = 0%	D = .	E = 0	F = 4%	G = 0%
COc1ccc(-c2cc3nc4n(c(=O)c3s2)CCC4)cc1
  A = 106%	B = 2%	C = -2%	D = -16%	E = 2	F = ?	G = 1.9µM*
COc1ccc(-c2nc3n(c2C)CCC3)cc1
  A = .	B = 3%	C = 4%	D = -48%	E = 2	F = 5%	G = .
CC(=O)Nc1ccc(NC(=O)c2ccc(N(C)S(=O)(=O)c3ccc(C)cc3)cc2)cc1
  A = 101%	B = 4%	C = 0%	D = -7%	E = -2	F = 4%	G = ?
O=C(NCC(c1ccc2c(c1)OCO2)N1CCN(c2ccccc2)CC1)c1ccc(F)c(F)c1 (stereo unspecified)
  A = -1%	B = -15%	C = 10%	D = 20%	E = .	F = .	G = .
Cc1cc(=O)oc2cc(OCC(=O)OCC(=O)Nc3ccccc3F)ccc12
  A = .	B = 5%	C = 1%	D = 1%	E = 0	F = 26%	G = .
Cc1cc(=O)oc2cc(OCC(=O)Nc3cccc(S(=O)(=O)N(C)C)c3)ccc12
  A = -13%	B = 9%	C = 0%	D = -3%	E = 1	F = -3%	G = .
Cc1cc(=O)oc2cc(OCC(=O)OCC(=O)Nc3ccc(C(N)=O)cc3)ccc12
  A = .	B = 0%	C = 0%	D = -17%	E = 0	F = -10%	G = .
Cc1cc(=O)oc2cc(OCC(=O)OCC(=O)NCc3ccc4c(c3)OCO4)ccc12
  A = 199%	B = 1%	C = 0%	D = 1%	E = -1	F = 20%	G = -26%
Cc1cc(=O)oc2cc(OCC(=O)OCC(=O)Nc3ccccc3C(C)C)ccc12
  A = 79%	B = -3%	C = 0%	D = -4%	E = -1	F = -7%	G = ?
Cc1ccc(NC(=O)COC(=O)COc2ccc3ccc(=O)oc3c2)cc1[N+](=O)[O-]
  A = 104%	B = -2%	C = -1%	D = .	E = 0	F = 9%	G = 19µM*
Cc1ccc(S(=O)(=O)N(C)C)cc1NC(=O)COC(=O)COc1ccc2c(C)cc(=O)oc2c1
  A = 88%	B = 0%	C = 0%	D = .	E = -5	F = 6%	G = -24%
Cc1cc(OCC(=O)OCC(=O)NCc2ccc3c(c2)OCO3)ccc1Cl
  A = -1%	B = -1%	C = 0%	D = .	E = 0	F = 9%	G = .
O=C(Cn1ncc2ccsc2c1=O)N1CCN(c2ccccc2F)CC1
  A = 0%	B = -10%	C = -1%	D = -3%	E = .	F = -5%	G = .

Among those listed so far, these contain a Cl atom:
Letter code – A = ClpP mod; B = A549 viability; C = Nrf2 ARE act; D = miR-21 reporter; E = IL-2 act; F = Nrf2 inh; G = ClpP validation
Clc1ccc(-c2nnc(-c3ccco3)o2)cc1
  A = 11%	B = -10%	C = ?	D = -51%	E = -3	F = ?	G = .
Cc1cc(Cl)ccc1NC(=O)CCn1nc(C)c2c(C)n(-c3ccccc3)nc2c1=O
  A = -6%	B = 10%	C = 0%	D = 3%	E = .	F = -3%	G = .
Cc1c(C(=O)Nc2ccc(-c3nc4cc(Cl)ccc4o3)cc2)oc2ccccc12
  A = 8.9µM*	B = 0%	C = 7%	D = -3%	E = .	F = 0%	G = 15µM*
Cc1cc(OCC(=O)OCC(=O)NCc2ccc3c(c2)OCO3)ccc1Cl
  A = -1%	B = -1%	C = 0%	D = .	E = 0	F = 9%	G = .

(more compounds)
Letter code – A = ClpP mod; B = A549 viability; C = Nrf2 ARE act; D = miR-21 reporter; E = IL-2 act; F = Nrf2 inh; G = ClpP validation
O=C(COc1ccccc1Cl)Nc1cc(-c2ccccc2F)nn1-c1ccccc1
  A = 1%	B = 2%	C = 0%	D = -4%	E = .	F = .	G = .
Cc1nn(CC(=O)NC(C)c2ccccc2)c(=O)c2cc3occc3n12 (stereo unspecified)
  A = -3%	B = 5%	C = 0%	D = -1%	E = .	F = 3%	G = .
COc1ccc(NC(=O)Cn2c(=O)c3cccn3c3ccccc32)cc1
  A = 51%	B = -1%	C = -1%	D = 5%	E = .	F = ?	G = -18%
CC(=O)c1ccc(NC(=O)Cn2c(=O)c3cccn3c3ccccc32)cc1
  A = -4%	B = 5%	C = 1%	D = 2%	E = .	F = -14%	G = .
COc1ccc(C)cc1S(=O)(=O)NC1CCCCC1C (stereo unspecified)
  A = 209%	B = -19%	C = 0%	D = -8%	E = 0	F = -14%	G = -1%
COc1ccc(C(C(=O)NC2CCCC2)N(C(=O)c2ccco2)c2cc3c(cc2C(C)=O)OCO3)cc1 (stereo unspecified)
  A = 3.2µM*	B = -11%	C = 0%	D = -1%	E = 1	F = -5%	G = 0%
CC(=O)c1cc2c(cc1N(C(=O)c1ccco1)C(C(=O)NC1CCCC1)c1ccccc1F)OCO2 (stereo unspecified)
  A = 0%	B = -9%	C = 0%	D = -7%	E = -2	F = 20%	G = .
Cc1ccc(C)c(N2CCN(C(=O)CCCCCn3c(=O)[nH]c4ccccc4c3=O)CC2)c1
  A = ?	B = -22%	C = 0%	D = 26%	E = .	F = .	G = .
O=C(NCCc1ccccc1)C1(c2cccs2)CCOCC1
  A = 1%	B = -16%	C = 0%	D = -1%	E = .	F = .	G = .
CC1=C(c2ccc(C)cc2)S(=O)(=O)N(Cc2ccc(C(=O)NCc3ccccc3)cc2)C1=O
  A = 5µM*	B = -1%	C = 0%	D = 4%	E = .	F = ?	G = -2%
CC1=C(c2ccc(C)cc2)S(=O)(=O)N(Cc2ccc(C(=O)Nc3ccccc3C)cc2)C1=O
  A = -3%	B = -19%	C = 0%	D = 28%	E = .	F = ?	G = .
Cc1ccccc1C(=O)NC1(C(F)(F)F)C(=O)Nc2c1c(=O)[nH]c(=O)n2CCc1ccccc1 (stereo unspecified)
  A = -4%	B = 8%	C = 0%	D = 0%	E = .	F = .	G = .
c1ccc2nc(-c3nc4ccccc4o3)ccc2c1
  A = 8.9µM*	B = -2%	C = -1%	D = 25%	E = -1	F = .	G = 22µM*
c1ccc(-c2ccc3ccccc3n2)cc1
  A = 0%	B = 13%	C = ?	D = .	E = 1	F = ?	G = .
COc1cccc2c3c(c(C)nc12)CC(C)O3 (stereo unspecified)
  A = 7.9µM*	B = 5%	C = 1%	D = -20%	E = 2	F = 16%	G = 7.7µM*

Source: PubChem
